## scFv variants of Ab-14 (heavy chain) against a SARS-CoV-2 spike peptide

From the AlphaSeq antibody data of Li et al. 2023 (doi:10.1038/s41467-023-39022-2), copy in the FLAb collection.

All variants were tested on one target, the spike HR2 peptide PDVDLGDISGINAS (SARS-CoV-2).

Ab-14 is the parent antibody, in scFv form: VH, then a (GGGGS)3 linker, then VL. The light chain is unchanged in all variants.
VH: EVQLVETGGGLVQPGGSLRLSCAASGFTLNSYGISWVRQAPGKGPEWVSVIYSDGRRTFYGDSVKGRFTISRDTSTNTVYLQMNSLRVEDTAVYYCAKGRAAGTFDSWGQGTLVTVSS
VL: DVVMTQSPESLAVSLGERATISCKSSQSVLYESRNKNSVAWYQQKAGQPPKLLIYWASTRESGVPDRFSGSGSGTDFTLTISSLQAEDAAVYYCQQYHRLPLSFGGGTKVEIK

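The starting antibody came from a phage panning campaign against this peptide. This is the validation round: designs drawn from the data on random variants, tested in the same kind of assay. Group labels follow the data file (Ctrl: baseline library sampled from a position-specific scoring matrix, with some repeated check sequences; Rand: our label for a block that the file lists under HC and that is probably the random mutants of the ten best first-round binders; GP: Gaussian process model; GPLM: also part of the Gaussian process libraries; HC: hill climbing; Gen: genetic algorithm; Gibbs: Gibbs sampling; a sequence that several methods proposed may carry one label only). The assay is AlphaSeq: two haploid yeast populations carry antibody and antigen on their surface. After mating in shaken culture at 30 °C for 16 h, diploids were selected and their barcode pairs sequenced. Scores were corrected for input abundance and mapped to Kd with protein pairs of known affinity run in the same pool. The assay was run in six technical replicates.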

The parent's heavy chain CDRs are GFTLNSYGIS, VIYSDGRRTFYGDSVK, GRAAGTFDS; each variant's own CDRs replace them letter for letter. Variants here have at most six changes. Values are log10 of the apparent Kd in nM; lower means stronger binding. Where no diploid with the target was found in that replicate, the entry reads "nd": below detection, most likely a poor binder, though not proof of it. In the paper, a design with two or fewer of six values counts as a poor binder.

Variant GFLLNDYGIS | VIYSDGRRTFYKDSVK | GSAAGTFDS [GP_HC] gave 0.85, 0.66, 0.25, 0.99, 0.49, 0.50 (controls 0 of 18). Variant GFTLNDYGIS | VIYSDGRRMFYIDSVK | GRAAGTFDS [GP_HC] showed 0.42, 1.66, nd, 0.23, 2.06, -0.06 (controls 0 of 18). Variant GFNLNTYGIS | VIYSDGRRTFYGDSVK | GREAGTFDS [GP_Gen] showed -0.48, -0.28, -0.01, 0.16, -0.66, 0.53 (controls 0 of 18). With GFSLNSYGIS | VIYSDGRRTFYADPVK | GRTAGTFDS [GPLM_Gen] the result was 0.41, 0.41, 0.67, 0.14, 0.82, 0.57 (controls 0 of 18). Variant AFTLNSYGIS | VIYSDGRRTFYDDSVK | GQLAGTFDS [GPLM_HC] gave nd, nd, nd, nd, 0.97, nd (controls 0 of 18). For GFHLNSYGIS | VIYSDGRRTFYHDSVK | GKTAGTFDS [GP_Gen], the assay gave 0.97, 1.69, 0.41, 1.13, 0.91, 1.39 (controls 0 of 18).

Variant GFTLNSYGIS | VIYSDGRRCFYGDSVK | GMAAGTFDS [Ctrl] gave nd, 3.00, nd, nd, 3.09, nd (controls 1 of 18). With GFTLDSYGIS | VIYSDGRRTFYSDSVK | GRTAGTFDS [Ctrl+GPLM_Gen] the result was nd, 0.25, -0.25, -0.07, 0.17, 1.11; 0.46, 0.24, 0.48, 0.33, 0.37, 0.87 (controls 0 of 36). For GFTLNSYGIS | VIYSDGRRTFYGDSVR | GRAPGAFES [Ctrl], the assay gave nd, nd, nd, nd, nd, nd (controls 0 of 18). Variant GFELNSYGIS | VIYSDGMRTFYGDSVK | ARAAGTFDS [Ctrl] showed nd, nd, nd, nd, nd, nd (controls 0 of 18). Variant GFTLNQYGIH | VIYSDPRRTFYMDSVK | GRAAGFFDS [Rand] showed nd, nd, nd, nd, nd, nd (controls 0 of 18). With GFSLNEYGIS | VIYSDGRRTFYCDSVK | GRTAGTFDS [GPLM_Gen] the result was 0.42, 0.70, 0.32, 0.32, 0.15, 0.14 (controls 0 of 18).

Variant GFELNEYGIS | VIYSDGRRTFYSDSVK | GKAAGTFDS [GP_Gen] gave 0.34, 0.23, -0.16, 0.14, -0.31, -0.17 (controls 0 of 18). Variant GFGLNEYGIS | VIYSDGRRTFYGDSVK | GQAAGTFDV [GP_Gen] gave -0.03, 0.36, 0.09, 0.09, 0.30, 0.18 (controls 0 of 18). Variant GFTLESYGIS | VIYADGRRTFYGDSVK | GQAAGTFSS [GP_HC] showed -0.06, -0.27, 0.10, 1.24, -0.08, 0.12 (controls 0 of 18). With GFTLNSYGIS | VIYSDGRRTYYGDSVK | GRLAGLFDS [Ctrl] the result was nd, nd, nd, nd, nd, nd (controls 0 of 18). For MFDLNSYGIS | VIYSDGRRTFYGDSVK | GKEAGTFDS [GP_Gen], the assay gave 1.11, 1.17, 1.03, 0.73, 1.34, 1.20 (controls 1 of 18). With GFSLNSYGIS | VIYSDGRRTFYQDSVK | GEAAGTFDS [GPLM_Gen] the result was 0.99, 0.40, 0.60, 0.44, 1.12, 0.73 (controls 0 of 18).

Variant GFTLNSYGSS | VIYSDGRRTFYGDSTK | GRAAGTFDS [Ctrl] gave nd, nd, nd, nd, nd, nd (controls 0 of 18). For GFTLESYGIS | VIYSDGRRTFYADSVK | GRAAGTFDV [GPLM_Gen], the assay gave 1.17, 0.53, nd, 0.65, nd, 1.09 (controls 0 of 18). Variant GFTLNEYGIS | VIYSDGRRTFYTDSVK | GRTAGTFYS [GP_HC] gave nd, 2.69, nd, nd, nd, 1.93 (controls 0 of 18). With GFTLNEYGIS | VIYSDGRRTFYQDSVK | GRAAGTFDQ [GP_HC] the result was 0.68, 0.54, 0.63, 0.61, 0.69, 0.52 (controls 0 of 18). With GFTLNSYGIS | VIYSDGRRTFYNDSVK | GREGGTWDS [Ctrl] the result was nd, nd, nd, nd, 3.45, 1.92 (controls 0 of 18). For GFTLNSYGIS | VIYSDGRRTFYSDSVK | GQTAGTFDK [GP_Gibbs], the assay gave 0.04, -0.34, -0.36, -0.50, -0.03, -0.51 (controls 0 of 18).

Variant GFTLNSYGIS | VIESDGKRTFYGDSVK | GRHAQTFDS [Ctrl] showed nd, nd, nd, nd, nd, nd (controls 0 of 18). For GFELNQYGIS | VIYSDGMRTFYSDSVK | GRAAGTFDS [GP_HC], the assay gave -0.10, 0.31, -0.19, -0.01, 0.14, 0.10 (controls 0 of 18). Variant GFDLNSYGIS | VIYSDGRRTAYGDSVK | GRAAGTFDA [GP_Gen] showed nd, nd, nd, nd, nd, nd (controls 0 of 18). With RFTLESYGIS | VIYADGRRTFYGDSVK | GRAAGTFKS [GP_HC] the result was nd, nd, nd, nd, nd, nd (controls 0 of 18). For GFTLNSYGKS | VIYSDGRRTFYGDSVK | GRAAGTFDS [Ctrl], the assay gave nd, nd, nd, nd, nd, nd (controls 0 of 18). With GFDLNSYGIS | VIYSDGRRTFYTDSVK | GKTAGTFDS [GP_Gen] the result was -0.29, -0.40, -0.47, -0.25, -0.48, -0.12 (controls 2 of 18).

For GFDLNSYGIS | VIYSDGRRTFYADSVK | GRTAGTFDS [GPLM_Gen], the assay gave -0.18, 0.34, 0.64, 0.19, 0.01, 0.13 (controls 1 of 18). Variant LFALDSYGIS | VIYSDGFRTFYGDSVK | GRAAGTFDS [Ctrl] showed nd, nd, nd, nd, nd, nd (controls 0 of 18). Variant GFTLNSYGIS | VIYSDGRRTFYGDSVK | GQVAGTFDM [GP_Gen] showed 1.88, 1.76, 1.83, 2.27, 1.53, 2.62 (controls 0 of 18). With GFTLNSYGIS | VIYSDGRRTFYDDSVK | NQLAGTFSS [Rand] the result was nd, nd, nd, nd, nd, nd (controls 0 of 18). For GFTLQEYGIS | VIYSDGRRTFYGDQVK | GRAAVTFDQ [Rand], the assay gave 1.14, nd, 0.34, 0.15, -0.23, 0.24 (controls 0 of 18). For GFTLNSYGIS | VIYSDGRRTFYHDDVK | GKQAGAFDS [Ctrl], the assay gave nd, nd, nd, nd, nd, nd (controls 1 of 18).

Variant GFELNSYGIS | VIYSDGRRTFYGDSVK | GRTAGTFDD [GPLM_Gen] showed 1.38, 1.17, 0.32, 0.55, 0.41, 1.08 (controls 0 of 18). Variant GFTLNSYGIS | VIYSDGRRTFYGDSVK | GRVAGTFDS [Ctrl+GPLM_Gen] gave 1.82, 2.98, 1.41, nd, 1.22, 2.18; 0.38, 1.24, -0.03, nd, 0.47, nd (controls 0 of 36). For GFTLNSYGIS | VIYSDGRRVFYSDSVD | GRCPGTFDS [Ctrl], the assay gave 1.95, 0.71, 0.76, 1.15, 0.56, 1.61 (controls 0 of 18). With GFTLNSYGIS | VIYSDGRRTAYGDSVR | GRAAGTFDS [Ctrl] the result was 1.06, 1.24, 0.58, 1.15, 0.47, 0.88 (controls 1 of 18). Variant GFNLNSYGIS | VIYSDGKRTFYGDSVK | GRTAGTFDS [GPLM_Gibbs] showed -0.31, -0.14, 0.10, -0.14, -0.17, 0.47 (controls 0 of 18). For GFTLNDYGIS | VIYSDGRRTFYTDSVK | GRTAGTFDS [GPLM_Gen], the assay gave nd, 1.04, 0.56, nd, nd, nd (controls 0 of 18).

With KFNLNSYGIS | VIYSDGRRTFYADSVK | GKNAGTFDS [GP_Gibbs] the result was nd, nd, nd, nd, nd, nd (controls 1 of 18). Variant GNTLNEYGIS | VIYSDGRRTFYGDSVK | GRCAGTFDS [GP_HC] showed nd, 2.29, nd, nd, nd, 1.69 (controls 0 of 18). With GFTLNEYGIS | VIYSDGRRTFYTDSVK | GFAAGTFDS [GPLM_HC] the result was 0.54, 0.53, 0.49, 0.67, 0.26, 1.02 (controls 0 of 18). Variant GFTLNEYGIS | VIYSDGRRTFYGDAVK | GRTAGTFDK [GP_Gen] showed -0.28, 0.13, 0.65, 0.33, 0.07, 0.52 (controls 0 of 18). Variant GFGLNEYGIS | VIYSDGRRTFYHDSVK | GRTAGTFWS [GP_Gibbs] gave -0.03, -0.17, -0.37, -0.28, -0.35, -0.16 (controls 0 of 18). For GFTLNSYGIS | VIYSDGRRTAYDDSVK | GQTAGTFDS [GP_HC], the assay gave 0.63, 0.49, 0.10, -0.28, 0.10, 0.06 (controls 0 of 18).

With GFTLMSYGIS | VIYSDGRRTFYIDSVK | GQLAGTFDS [GPLM_HC] the result was nd, nd, nd, nd, nd, nd (controls 0 of 18). Variant GFELNEYGIS | VIYADGRPTFYEDSVK | GRAAWTFDS [Ctrl] gave nd, nd, nd, nd, nd, nd (controls 0 of 18).

8 of these entries, quoted again:

| CDR-H1 | CDR-H2 | CDR-H3 | group | log10 Kd, replicates | empty controls |
|---|---|---|---|---|---|
| GFTLNEYGIS | VIYSDGRRTFYTDSVK | GRTAGTFYS | GP_HC | nd, 2.69, nd, nd, nd, 1.93 | 0 of 18 |
| GFELNEYGIS | VIYADGRPTFYEDSVK | GRAAWTFDS | Ctrl | nd, nd, nd, nd, nd, nd | 0 of 18 |
| GFTLNQYGIH | VIYSDPRRTFYMDSVK | GRAAGFFDS | Rand | nd, nd, nd, nd, nd, nd | 0 of 18 |
| GFTLNSYGIS | VIYSDGRRTFYGDSVR | GRAPGAFES | Ctrl | nd, nd, nd, nd, nd, nd | 0 of 18 |
| GFTLNSYGIS | VIYSDGRRTYYGDSVK | GRLAGLFDS | Ctrl | nd, nd, nd, nd, nd, nd | 0 of 18 |
| GFTLNSYGIS | VIYSDGRRTAYDDSVK | GQTAGTFDS | GP_HC | 0.63, 0.49, 0.10, -0.28, 0.10, 0.06 | 0 of 18 |
| GFTLNEYGIS | VIYSDGRRTFYQDSVK | GRAAGTFDQ | GP_HC | 0.68, 0.54, 0.63, 0.61, 0.69, 0.52 | 0 of 18 |
| LFALDSYGIS | VIYSDGFRTFYGDSVK | GRAAGTFDS | Ctrl | nd, nd, nd, nd, nd, nd | 0 of 18 |

Of ten entries with the parent sequence, four were seen in most replicates (averages 0.34 to 2.37), three in one and three in none, so single entries are noisy. Background: pairings of all heavy chain designs with three empty control strains gave a value in 1% of cases (median 2.08, 5th percentile 0.84). Values in that range, when seen in few replicates, are hard to tell from nonspecific mating. For each scFv, signals with the empty controls are counted beside the result. Where one sequence has several entries in the source, the replicates are listed entry by entry, parted by semicolons. The range of this assay differs from that of the first round, and the authors advise against merging the two.